This is an account of results in article PMC6925656 (Clinical pharmacology and therapeutics, 2019).

The test system of the data set is Oct1. Kind of data set: Pharmacokinetics in Oct1-deficient versus wild-type mice. Particulars: sorafenib 10 mg/kg oral, 7.5 h.

Turning to sorafenib-glucuronide, the “Liver concentrations, Oct1-deficient vs wild-type mice” value is “no significant differences” and the “Liver-to-plasma ratio, Oct1-deficient vs wild-type mice” value is recorded as “no significant differences”.
